Measured values taken from US20190209539A1, “THIOHYDANTOIN ANDROGEN RECEPTOR ANTAGONISTS FOR THE TREATMENT OF CANCER” (Janssen Pharmaceutica NV, priority 2016, published 2019).

Protein sequences, listed by entry. Tags and fused reporters are not part of them.
UniProt P10275, whole entry T878A: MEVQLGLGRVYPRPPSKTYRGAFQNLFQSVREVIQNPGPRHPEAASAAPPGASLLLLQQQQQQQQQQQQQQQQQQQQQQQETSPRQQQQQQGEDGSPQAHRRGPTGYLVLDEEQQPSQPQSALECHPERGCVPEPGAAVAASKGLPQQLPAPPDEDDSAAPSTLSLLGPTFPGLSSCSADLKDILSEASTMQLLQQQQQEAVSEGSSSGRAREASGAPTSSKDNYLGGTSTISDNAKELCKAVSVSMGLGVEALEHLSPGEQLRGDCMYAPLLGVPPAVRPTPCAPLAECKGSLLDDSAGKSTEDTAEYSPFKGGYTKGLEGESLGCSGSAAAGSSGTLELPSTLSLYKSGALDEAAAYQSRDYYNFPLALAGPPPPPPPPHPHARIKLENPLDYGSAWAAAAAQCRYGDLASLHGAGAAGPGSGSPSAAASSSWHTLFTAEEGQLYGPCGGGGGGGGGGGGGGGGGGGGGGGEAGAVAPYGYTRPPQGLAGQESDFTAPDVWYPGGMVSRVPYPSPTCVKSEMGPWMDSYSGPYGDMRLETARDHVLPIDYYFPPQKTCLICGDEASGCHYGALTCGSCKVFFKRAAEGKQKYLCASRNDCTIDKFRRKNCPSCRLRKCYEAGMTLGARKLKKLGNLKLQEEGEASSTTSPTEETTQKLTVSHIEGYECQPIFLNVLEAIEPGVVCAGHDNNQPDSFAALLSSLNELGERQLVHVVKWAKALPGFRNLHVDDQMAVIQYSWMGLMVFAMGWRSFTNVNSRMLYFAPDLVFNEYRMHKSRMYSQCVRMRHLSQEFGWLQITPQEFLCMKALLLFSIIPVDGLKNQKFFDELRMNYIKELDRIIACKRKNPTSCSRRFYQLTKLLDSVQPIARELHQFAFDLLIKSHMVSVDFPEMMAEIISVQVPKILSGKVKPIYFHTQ

Experiments:
[1] = target: T1, wild-type Androgen Receptor (AR-wt) (Homo sapiens, UniProt P10275); test: LNCaP-AR-wt AG: ARE luciferase reporter assay, agonist mode; format: cell-based; details: maximum % stimulation (agonist response), % of 1 μM R-1881 max
T1 construct: expressed in transfected cells; host or cells: LNCaP AR (cs) cells with ARE firefly luciferase lentiviral construct

AR (human) = target: T2, AR (human) (Homo sapiens, UniProt P10275, T878A); test: Radioligand binding to AR ([3H]methyltrienolone, LNCaP cells cytosol)
T2 construct: AR (human) (agonist radioligand) LNCaP cells (cytosol); endogenous in cells; host or cells: LNCaP cells (cytosol)
Method: Radioligand binding assays were performed with the cell extracts and ligands as detailed below. Complete methodology is contained within the cited publications. Kd values were determined by Non-Specific Incubation Detection Method.
AR (human) (agonist radioligand) LNCaP cells (cytosol)
[^3H]methyltrienolone 1 nM 0.8 nM mibolerone (1 μM) 24 h 4° C. Scintillation counting. Zava, D. T et al.(1979) Endocrinology, 104: 1007-1012.
The results are expressed as a percent of control specific binding measured specific binding *100 control specific binding and as a percent inhibition of control specific binding 100-(measured specific binding*100) control specific binding obtained in the presence of compoundn.
The IC50 values (concentration causing a half-maximal inhibition of control specific binding) and Hill coefficients (nH) were determined by non-linear regression analysis of the competition curves generated with mean replicate values using Hill equation curve fitting.
The inhibition constants (Ki) were calculated using the Cheng Prusoff equation:
wherein L=concentration of radioligand in the assay, and KD=affinity of the radioligand for the receptor. A scatchard plot is used to determine the KD.
Radioligand binding inhibition and affinity calculations were determined using [^3H]-methyltrienolone, [^3H]-dexamethasone and [^3H]-estradiol for AR, GR and ER, respectively. […]

Row | Ki (AR (human); Cheng Prusoff, [3H]-methyltrienolone) [nM] | IC50 (AR (human); [3H]-methyltrienolone 1 nM, LNCaP cytosol) [nM] | SMILES | LNCaP-AR-wt AG MAX % Stim [1] [%]
1 |  |  | N#Cc1ncc(N2C(=O)C3(CCC3)N(c3ccc(N4CCNCC4)cc3)C2=S)cc1C(F)(F)F [Cpd 8, 5-[5-oxo-8-(4-piperazin-1-ylphenyl)-7-thioxo-6,8-diazaspiro[3.4]octan-6-yl]-3-(trifluoromethyl)pyridine-2-carbonitrile] | 0.2
2 |  |  | N#Cc1ncc(N2C(=O)C3(CCC3)N(c3ccc(O)cc3)C2=S)cc1C(F)(F)F [Cpd 77, 5-[8-(4-hydroxyphenyl)-5-oxo-7-thioxo-6,8-diazaspiro[3.4]octan-6-yl]-3-(trifluoromethyl)pyridine-2-carbonitrile] | 0.8
3 | 8.4 | 19 | CN1CCC(Oc2ccc(N3C(=S)N(c4cnc(C#N)c(C(F)(F)F)c4)C(=O)C34CCC4)cc2)CC1 [Cpd 85, 5-[8-[4-[(1-methyl-4-piperidyl)oxy]phenyl]-5-oxo-7-thioxo-6,8-diazaspiro[3.4]octan-6-yl]-3-(trifluoromethyl)pyridine-2-carbonitrile] | 
